Values of other authors, collected in publication PMC2834170 (Bioorganic & medicinal chemistry letters, 2010).

System: μ, δ and κ opioid receptors
Details: ratio of Ki values; ref [6]; cited from earlier work

Structure (SMILES): Oc1ccc2c(c1)[C@@]13CCCC[C@H]1[C@@H](C2)N(CC1CCC1)CC3 [Compound 1, butorphan]
- Selectivity μ/δ/κ: 3/75/1
